Data from patent publication US12391770B2, “Compositions and methods comprising antibodies that bind to covalent peptide conjugates” (New York University, priority 2021, dated 2025).

B1: AMRA3-7_UCHT1 scDb: single-chain Diabody, SEQ ID NO: 144 (protein)
chain: DIVRSDIQMTQSPSSLSASVGDRVTITCRASQSVSSAVAWYQQKPGKAPKLLIYSASSLYSGVPSRFSGSRSGTDFTLTISSLQPEDFATYYCQQISYVYSLITFGQGTKVEIKGGGGSEVQLQQSGPELVKPGASMKISCKASGYSFTGYTMNWVKQSHGKNLEWMGLINPYKGVSTYNQKFKDKATLTVDKSSSTAYMELLSLTSEDSAVYYCARSGYYGDSDWYFDVWGQGTTLTVSSGGGGSGGGGSGGGGSDIQMTQTTSSLSASLGDRVTISCRASQDIRNYLNWYQQKPDGTVKLLIYYTSRLHSGVPSKFSGSGSGTDYSLTISNLEQEDIATYFCQQGNTLPWTFAGGTKLEIKGGGGSEVQLVESGGGLVQPGGSLRLSCAASGFTFSSYSIHWVRQAPGKGLEWVASIYSSYGYTSYADSVKGRFTISADTSKNTAYLQMNSLRAEDTAVYYCARGGWYPAMDYWGQGTLVTVSSLEGGGGLNDIFEAQKIEWHESRHHHHHH
B2: AMRA3-7D scDb: single-chain Diabody, SEQ ID NO: 148 (protein)
chain: DIVRSDIQMTQSPSSLSASVGDRVTITCRASQSVSSAVAWYQQKPGKAPKLLIYSASSLYSGVPSRFSGSRSGTDFTLTISSLQPEDFATYYCQQISYVKKLITFGQGTKVEIKGGGGSEVQLQQSGPELVKPGASMKISCKASGYSFTGYTMNWVKQSHGKNLEWMGLINPYKGVSTYNQKFKDKATLTVDKSSSTAYMELLSLTSEDSAVYYCARSGYYGDSDWYFDVWGQGTTLTVSSGGGGSGGGGSGGGGSDIQMTQTTSSLSASLGDRVTISCRASQDIRNYLNWYQQKPDGTVKLLIYYTSRLHSGVPSKFSGSGSGTDYSLTISNLEQEDIATYFCQQGNTLPWTFAGGTKLEIKGGGGSEVQLVESGGGLVQPGGSLRLSCAASGFTFSDYSIHWVRQAPGKGLEWVASISSSSGSTSYADSVKGRFTISADTSKNTAYLQMNSLRAEDTAVYYCARGGWYPAMDYWGQGTLVTVSSLEGGGGLNDIFEAQKIEWHESRHHHHHH

Key:
Lung cancer cell lines = test: Cytotoxicity of scDb on AMG510-treated lung cancer cell lines co-cultured with human T-cells (FIG. 19); format: cell-based; details: 100 nM AMG510 for 24 hr, human T-cells E:T=5:1, cell viability
Experimental: FIG. 19. Graphs showing specific cytotoxic effect of AMRA3-7_UCHT1 scDb on drug-treated lung cancer cell lines. (A) Lung cancer cell lines were treated with 100 nM AMG510 for 24 hr, then co-cultured with human T-cells (E:T=5:1) in the presence of AMRA3-7_UCHT1 scDb. After incubation, cell viability was measured. […] (B) Cytotoxic effect of scDb at 0.1 nM concentration. Data shown here are from quadruplicate measurements.
To obtain the results for FIG. 19, lung cancer cell lines were cultured in RPMI supplemented with 10% fetal bovine serum (FBS) and penicillin/streptomycin. For cytotoxicity assays, 1×10^4 cells/well were seeded in 96-well flat bottom plates and incubated at 37° C., 5% CO2 for 24 hours. Media were replaced with fresh media supplemented with 100 nM AMG510 or DMSO, then the cells were incubated for 24 hours at 37° C. After incubation, cells were co-cultured with human T cells (E:T=5:1) and AMRA3-7_UCHT1 scDb in the presence of 100 IU/mL IL-2 for 24 hr at 37° C. Cell viability was assessed by using PrestoBlue™ Cell Viability Reagent (ThermoFisher, A13261). Cytotoxicity was calculated by taking the fluorescent signal of a given well, subtracting the fluorescent signal from the wells that contain only T-cells, and normalizing to the fluorescent signal from the wells without scDb.

Raji cells = test: Cell killing of peptide-drug-pulsed Raji cells co-cultured with human T cells (FIG. 21A, 22B); format: cell-based; details: Raji cells pulsed with AMG510-KRAS(G12C) peptide conjugate or KRAS(wild type) control peptide, human T cells E:T=3:1
Experimental: To obtain the results for FIG. 21 (A) and FIG. 22 (B), Raji cells (ATCC) were cultured in RPMI supplemented with 10% fetal bovine serum (FBS) and penicillin/streptomycin. The cytotoxic effects of scDb and CrossMab were measured by following the protocol published previously (ref: PMID 26813960). Briefly, Raji cells were stained with carboxyfluorescein succinimidyl ester (CSFE, ThermoFisher, 65-0850-84), then incubated with 10 μM KRAS(G12C)-AMG510 conjugate or 10 μM KRAS(WT) peptide (final concentrations) in the presence of 10 μg/mL human beta-2 microglobulin for 4 hr. The cells were harvested by centrifugation and washed in media to remove the unbound conjugate and peptide. Peptide-drug-pulsed cells were then co-cultured with human T-cells (E:T=3:1) in the presence of scDb or CrossMab for 19 hr. After incubation, cells were harvested and washed with PBS, then stained with Fixable Viability Dye eFluor660 (ThermoFisher, 65-0864-14). After washing again, cells were analyzed on iQue screener (Satorius).
(A) Raji cells were first pulsed with AMG510 conjugated to a peptide corresponding to a fragment of KRAS(G12C) or a control peptide corresponding to KRAS(wild type). […] After incubation for 17 hours, dead cells were stained and detected by flow cytometry. […] After incubation, dead cells were measured by detecting a distinct intracellular protease activity released from membrane-compromised cells. […]

| Molecule | cytotoxic effect on drug-treated lung cancer cell lines (Lung cancer cell lines) | cell killing effect on pulsed Raji cells (Raji cells) |
| --- | --- | --- |
| B1 | dose-dependent cytotoxic effect only on the AMG510-treated cells with the cognate KRAS mutation (G12C) and HLA (HLA-A3) |  |
| B2 |  | Dose-dependent cell killing effect |
